Data from patent US9480679B2, “Methods for treating malaria, tuberculosis and MAC diseases” (priority 2009, dated 2016).

Tested on: P. berghei
Assay: Murine P. berghei model, oral 1x or 4x 100 mg/kg
Assay type: in vivo
Conditions: mice
Description: EXAMPLE. CEM-101 activity in infected mice.
EXAMPLE. CEM-101 was tested in the murine P. berghei model as described by Vennerstrom et al. Nature 430(7002):900-904 (2004), the disclosure of which is incorporated herein by reference.

In the case of `CCC[C@@H]1C[C@@H](C(=O)N[C@@H]([C@H]2O[C@H](SC)[C@H](O)[C@@H](O)[C@H]2O)[C@H](C)Cl)N(C)C1` [Clindamycin], the “Activity (%)” value (1 × 100 mg/kg oral, DMSO) is reported as 78.79%, the “Survival” value (1 × 100 mg/kg oral, DMSO) is reported as 7.0 days and the “Activity (%)” value (1 × 100 mg/kg oral, HPMC) is reported as 79.06%. For the same compound, the “Survival” value (1 × 100 mg/kg oral, HPMC) was 7.3 days, the “Activity (%)” value (4 × 100 mg/kg oral, DMSO) was 99.75% and the “Survival” value (4 × 100 mg/kg oral, DMSO, survivors sacrificed on Day 31) was 18.3 days. The “Activity (%)” value (4 × 100 mg/kg oral, HPMC) was 99.59%, the “Survival” value (4 × 100 mg/kg oral, HPMC, survivors sacrificed on Day 31) was 20.0 days and the “survival increasing to Day” value (P. berghei strain ANKA, 4×100 mg/kg) was 15 days.
